Measurements from PubChem BioAssay (EPA / NIEHS).
The list shows a part of the results, in another mix than the full data. Records with an inconclusive call do not appear. The source made the active and inactive calls. The calls were made as follows: active = hit-call score of the fitted dose curve at least 0.9, where 1 is the maximum; inconclusive = response in the unintended direction; inactive = score below 0.9.

Protein sequences, listed by entry. Tags and fused reporters are not part of them.
UniProt P04150, whole entry: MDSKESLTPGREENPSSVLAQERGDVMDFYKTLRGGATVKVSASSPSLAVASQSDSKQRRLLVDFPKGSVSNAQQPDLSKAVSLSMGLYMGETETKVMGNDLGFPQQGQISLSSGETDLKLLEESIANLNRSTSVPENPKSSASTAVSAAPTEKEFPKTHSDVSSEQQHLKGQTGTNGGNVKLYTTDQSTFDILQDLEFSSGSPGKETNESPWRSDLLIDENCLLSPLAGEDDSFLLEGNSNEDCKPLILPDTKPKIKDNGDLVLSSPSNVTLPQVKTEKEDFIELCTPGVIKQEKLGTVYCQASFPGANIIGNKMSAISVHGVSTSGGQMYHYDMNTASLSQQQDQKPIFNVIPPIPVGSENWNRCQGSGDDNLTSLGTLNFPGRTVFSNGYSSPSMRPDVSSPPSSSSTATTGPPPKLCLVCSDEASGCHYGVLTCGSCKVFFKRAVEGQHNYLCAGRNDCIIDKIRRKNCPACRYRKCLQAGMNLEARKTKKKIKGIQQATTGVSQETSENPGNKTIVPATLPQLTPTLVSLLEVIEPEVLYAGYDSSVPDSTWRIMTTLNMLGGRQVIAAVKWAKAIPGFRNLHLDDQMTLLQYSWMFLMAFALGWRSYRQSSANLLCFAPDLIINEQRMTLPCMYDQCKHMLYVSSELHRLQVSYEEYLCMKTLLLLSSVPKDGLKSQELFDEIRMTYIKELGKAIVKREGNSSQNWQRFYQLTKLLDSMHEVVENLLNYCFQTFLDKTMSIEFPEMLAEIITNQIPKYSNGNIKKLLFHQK
UniProt Q96RI1, whole entry: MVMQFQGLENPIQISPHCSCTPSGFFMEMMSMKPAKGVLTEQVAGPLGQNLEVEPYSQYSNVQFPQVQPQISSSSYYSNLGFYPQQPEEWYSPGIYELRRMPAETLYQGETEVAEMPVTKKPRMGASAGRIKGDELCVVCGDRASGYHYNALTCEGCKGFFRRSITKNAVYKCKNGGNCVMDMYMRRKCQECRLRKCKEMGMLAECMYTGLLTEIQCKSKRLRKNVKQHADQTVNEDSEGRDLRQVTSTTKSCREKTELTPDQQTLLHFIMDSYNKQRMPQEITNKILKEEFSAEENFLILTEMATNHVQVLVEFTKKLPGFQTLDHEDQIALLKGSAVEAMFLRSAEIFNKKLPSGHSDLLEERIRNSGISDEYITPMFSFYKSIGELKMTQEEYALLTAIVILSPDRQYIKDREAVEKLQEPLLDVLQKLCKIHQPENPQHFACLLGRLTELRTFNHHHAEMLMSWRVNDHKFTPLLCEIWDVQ
UniProt P41235, whole entry: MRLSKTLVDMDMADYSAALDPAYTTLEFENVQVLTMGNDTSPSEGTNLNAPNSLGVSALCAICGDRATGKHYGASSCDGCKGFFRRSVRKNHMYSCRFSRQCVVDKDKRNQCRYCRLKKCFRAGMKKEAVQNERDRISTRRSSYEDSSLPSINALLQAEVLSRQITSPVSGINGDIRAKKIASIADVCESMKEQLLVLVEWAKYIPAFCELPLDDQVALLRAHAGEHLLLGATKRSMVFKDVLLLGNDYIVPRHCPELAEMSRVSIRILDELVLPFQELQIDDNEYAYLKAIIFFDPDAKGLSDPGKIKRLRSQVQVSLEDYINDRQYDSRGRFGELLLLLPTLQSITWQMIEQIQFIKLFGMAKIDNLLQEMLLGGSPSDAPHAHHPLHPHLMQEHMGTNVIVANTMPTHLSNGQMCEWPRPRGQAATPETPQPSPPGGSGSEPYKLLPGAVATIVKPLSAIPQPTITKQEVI
UniProt P55055, whole entry: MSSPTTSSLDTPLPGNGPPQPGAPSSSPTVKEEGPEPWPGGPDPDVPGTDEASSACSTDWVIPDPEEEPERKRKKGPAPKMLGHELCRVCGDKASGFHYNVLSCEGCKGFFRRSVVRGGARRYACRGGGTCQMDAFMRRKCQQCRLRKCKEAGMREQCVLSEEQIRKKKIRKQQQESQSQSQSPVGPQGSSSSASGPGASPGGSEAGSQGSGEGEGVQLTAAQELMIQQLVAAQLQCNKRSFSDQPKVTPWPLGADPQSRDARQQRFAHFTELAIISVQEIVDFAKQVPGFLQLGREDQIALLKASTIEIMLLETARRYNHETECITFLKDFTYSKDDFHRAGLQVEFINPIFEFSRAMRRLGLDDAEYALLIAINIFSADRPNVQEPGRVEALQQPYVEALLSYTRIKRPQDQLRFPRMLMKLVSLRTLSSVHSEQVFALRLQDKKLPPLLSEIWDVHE
UniProt Q13133, whole entry: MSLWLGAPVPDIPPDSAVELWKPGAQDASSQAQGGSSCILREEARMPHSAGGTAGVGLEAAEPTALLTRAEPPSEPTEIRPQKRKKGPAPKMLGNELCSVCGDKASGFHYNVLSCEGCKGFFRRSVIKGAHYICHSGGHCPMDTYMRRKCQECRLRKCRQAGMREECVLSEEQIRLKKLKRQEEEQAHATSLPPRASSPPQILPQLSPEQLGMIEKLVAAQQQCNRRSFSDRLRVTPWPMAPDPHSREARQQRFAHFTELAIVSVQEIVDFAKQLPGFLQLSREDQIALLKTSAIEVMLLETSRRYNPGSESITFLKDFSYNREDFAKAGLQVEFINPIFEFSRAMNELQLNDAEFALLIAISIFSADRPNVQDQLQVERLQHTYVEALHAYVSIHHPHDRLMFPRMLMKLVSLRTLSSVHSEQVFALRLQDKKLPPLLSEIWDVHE
UniProt P62508, whole entry: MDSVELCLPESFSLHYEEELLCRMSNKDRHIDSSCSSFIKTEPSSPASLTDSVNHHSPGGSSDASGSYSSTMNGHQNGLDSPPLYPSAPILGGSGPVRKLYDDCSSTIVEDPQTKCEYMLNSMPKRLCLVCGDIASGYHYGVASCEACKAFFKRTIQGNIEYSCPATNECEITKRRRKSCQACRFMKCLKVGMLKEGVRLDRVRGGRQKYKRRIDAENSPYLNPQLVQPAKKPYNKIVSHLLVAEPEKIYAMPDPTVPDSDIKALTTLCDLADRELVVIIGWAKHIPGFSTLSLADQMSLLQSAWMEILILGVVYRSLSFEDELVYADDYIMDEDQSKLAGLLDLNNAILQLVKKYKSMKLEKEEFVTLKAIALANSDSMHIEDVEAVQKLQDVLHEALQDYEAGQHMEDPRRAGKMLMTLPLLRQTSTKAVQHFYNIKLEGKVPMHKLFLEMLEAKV

Tests used:
[1] = ATG_M_19_TRANS: Attagene TRANS-FACTORIAL HepG2 Assay for M19 Transcription Factor (Internal Marker) (AID 2282974); settings: HepG2 Attagene TRANS-FACTORIAL M19 internal marker reporter
Protocol: (§1) ATG_TRANS is a cell-based, multiplexed-readout assay that uses HepG2, a human liver cell line, with measurements taken at 24 hours after chemical dosing in a 24-well plate.ATG_M_19_TRANS is one of 30 assay component(s) measured or calculated from the ATG_TRANS assay. It is designed to make measurements of mRNA induction, a form of inducible reporter, as detected with fluorescence intensity signals by Reverse transcription polymerase chain reaction (RT-PCR) and Capillary electrophoresis technology.Data from the assay component ATG_M_19_TRANS was analyzed into 1 assay endpoint. This assay endpoint, ATG_M_19_TRANS, was analyzed in the positive analysis fitting direction relative to DMSO as the negative control and baseline of activity. Using a type of inducible reporter, measures of mRNA for gain-of-signal activity can be used to understand the background control at the transcription factor-level as they relate to the gene . Furthermore, this assay endpoint can be referred to as a secondary readout, because this assay has produced multiple assay endpoints where this one serves a background control function. To generalize the intended target to other relatable targets, this assay endpoint is annotated to the background measurement intended target family, where the subfamily is internal marker.
(§2) Human liver HepG2 cells are transiently transfected with multiple reporter transcription units (MRTUs) in 6-well plates using FuGene 6 reagent (Roche; 3 ml FuGene/1 mg DNA). The MRTU constructs are regulated by a cis-regulating element (promoter). […] A major difference between the CIS and TRANS system is that in CIS activities of endogenous TFs are measured, whereas the TRANS assay evaluates changes in activities of exogenous, chimeric NR-Gal4 proteins. […] At the end of 24 hour incubation, total RNA was isolated using TriZol reagent (Invitrogen). The isolated RNA is then reverse-transcribed using oligo(dT) primer and Mo-MLV reverse transcriptase (Invitrogen) with DNAse I (Ambion) treatment for 30 min. The one-tenth of the produced cDNA was amplified by PCR using Taq DNA polymerase (Invitrogen) and two reporter sequence-specific primers. The PCR products were fluorescently labeled by primer extension with 6-arboxyfluorescein (6-FAM) 5'-labeled reporter sequence-specific primer (2 min at 95 C, 20 s at 68 C and 10 min at 72 C) and these products were digested with 5U of HpaI (New England Biolabs) for 2h at 37 C. The fragments were purified using Qiaquick PCR columns (Qiagen), analyzed on an ABI 3130xL genetic analyzer (Applied Biosystems) with peak positions identified by using a set of X-rhodamine (ROX)-labeled MapMarker1000 molecular weight standards (BioVentures). […]

[2] = ATG_GAL4_TRANS: Attagene TRANS-FACTORIAL HepG2 Assay for GAL4 (Internal Marker) (AID 2282976); settings: HepG2 Attagene TRANS GAL4 internal marker reporter
Protocol: as §1, with “plate.ATG_GAL4_TRANS” for “plate.ATG_M_19_TRANS”, “ATG_GAL4_TRANS” for “ATG_M_19_TRANS”, “ATG_GAL4_TRANS,” for “ATG_M_19_TRANS,”, “baseline control.” for “internal marker.”
Human liver HepG2 cells are transiently transfected with multiple reporter transcription units (MRTUs) in 6-well plates using FuGene 6 reagent (Roche; 3 ml FuGene/1 mg DNA). The MRTU constructs are regulated by a cis-regulating element (promoter). […] A major difference between the CIS and TRANS system is that in CIS activities of endogenous TFs are measured, whereas the TRANS assay evaluates changes in activities of exogenous, chimeric NR-Gal4 proteins. […] The fragments were purified using Qiaquick PCR columns (Qiagen), analyzed on an ABI 3130xL genetic analyzer (Applied Biosystems) with peak positions identified by using a set of X-rhodamine (ROX)-labeled MapMarker1000 molecular weight standards (BioVentures). […]

[3] = molecular target: Glucocorticoid receptor (Homo sapiens) (UniProt P04150); assay: ATG_GR_TRANS: Attagene TRANS-FACTORIAL HepG2 Assay for human Glucocorticoid Receptor (GR) (AID 2282978); settings: HepG2 Attagene TRANS GR reporter, mRNA transcription;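 also: activators score as hits since higher reporter transcript over DMSO is fitted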
[4] = molecular target: Bile acid receptor (Homo sapiens) (UniProt Q96RI1); assay: ATG_FXR_TRANS: Attagene TRANS-FACTORIAL HepG2 Assay for Farnesoid X Receptor (FXR) (AID 2282979); settings: HepG2 Attagene TRANS FXR-GAL4 reporter transcription;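 also: hits raise reporter mRNA above DMSO so AC50 marks FXR activation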
Protocol: ATG_TRANS is a cell-based, multiplexed-readout assay that uses HepG2, a human liver cell line, with measurements taken at 24 hours after chemical dosing in a 24-well plate.ATG_FXR_TRANS is one of 30 assay component(s) measured or calculated from the ATG_TRANS assay. It is designed to make measurements of mRNA induction, a form of inducible reporter, as detected with fluorescence intensity signals by Reverse transcription polymerase chain reaction (RT-PCR) and Capillary electrophoresis technology.Data from the assay component ATG_FXR_TRANS was analyzed into 1 assay endpoint. This assay endpoint, ATG_FXR_TRANS, was analyzed in the positive analysis fitting direction relative to DMSO as the negative control and baseline of activity. Using a type of inducible reporter, measures of mRNA for gain-of-signal activity can be used to understand the reporter gene at the transcription factor-level as they relate to the gene NR1H4. Furthermore, this assay endpoint can be referred to as a primary readout, because this assay has produced multiple assay endpoints where this one serves a reporter gene function. To generalize the intended target to other relatable targets, this assay endpoint is annotated to the nuclear receptor intended target family, where the subfamily is non-steroidal.
as §2

[5] = molecular target: Hepatocyte nuclear factor 4-alpha (Homo sapiens) (UniProt P41235); assay: ATG_HNF4a_TRANS: Attagene TRANS-FACTORIAL HepG2 Assay for human Hepatocyte Nuclear Factor 4 alpha (HNF4a) (AID 2282982); settings: HepG2 HNF4a transactivation reporter, mRNA readout
How it was run: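 Activity of an exogenous HNF4a–Gal4 fusion scored as induced GAL4-UAS reporter transcripts after 24 h chemical exposure of transfected human HepG2 cells. Read-out via RT-PCR with 6-FAM labelling and capillary electrophoresis; rise over DMSO baseline.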

[6] = ATG_M_32_TRANS: Attagene TRANS-FACTORIAL HepG2 Assay for M32 Transcription Factor (Internal Marker) (AID 2282984); settings: HepG2 Attagene TRANS M32 internal marker reporter
How it was run: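 Internal background reporter in transfected HepG2: after 24 h chemical exposure, RNA reverse-transcribed, reporter cDNA amplified, fluorescently labelled and HpaI-cut, then sized by capillary electrophoresis. Gain of signal fitted against DMSO control.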

[7] = molecular target: Oxysterols receptor LXR-beta (Homo sapiens) (UniProt P55055); assay: ATG_LXRb_TRANS: Attagene TRANS-FACTORIAL HepG2 Assay for human Liver X Receptor beta (LXRb) (AID 2282981); settings: HepG2 Attagene TRANS GAL4-LXRb reporter, mRNA
How it was run: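 After 24 h chemical treatment of transfected HepG2 cells carrying exogenous NR-Gal4 chimeras, reporter mRNA was quantified by fluorescent RT-PCR and capillary electrophoresis; activity taken as increase over DMSO controls.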

[8] = molecular target: Oxysterols receptor LXR-alpha (Homo sapiens) (UniProt Q13133); assay: ATG_LXRa_TRANS: Attagene TRANS-FACTORIAL HepG2 Assay for human Liver X Receptor alpha (LXRa) (AID 2282980); settings: HepG2 Attagene TRANS reporter, LXRa transactivation
How it was run: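 Chemical-induced reporter mRNA measured by RT-PCR with fluorescent labelling and capillary electrophoresis after 24 h dosing of transiently transfected HepG2 cells expressing exogenous NR-Gal4 chimeras; increases scored against DMSO baseline.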

[9] = ATG_M_06_TRANS: Attagene TRANS-FACTORIAL HepG2 Assay for M06 Transcription Factor (Internal Marker) (AID 2282983); settings: HepG2 Attagene TRANS M06 internal marker reporter
How it was run: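 Background-control reporter readout: after 24 h chemical exposure of transiently transfected HepG2 (GAL4-UAS reporter units), mRNA quantified by RT-PCR with fluorescent labeling and capillary electrophoresis. Gain-of-signal fitting against DMSO baseline.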

[10] = molecular target: Estrogen-related receptor gamma (Homo sapiens) (UniProt P62508); assay: ATG_ERRg_TRANS: Attagene TRANS-FACTORIAL HepG2 Assay for human Estrogen-Related Receptor gamma (ERRg) (AID 2282977); settings: HepG2 Attagene TRANS reporter, ERRg transactivation;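 also: hits increase reporter signal over DMSO so potencies reflect activators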
How it was run: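 Exogenous NR-Gal4 chimera activity measured as reporter transcript induction after 24 h in transiently transfected HepG2 cells. RNA reverse-transcribed, PCR-amplified, 6-FAM-labelled and resolved by capillary electrophoresis; increase over DMSO baseline.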

Measured: outcome

O=[N+]([O-])OCC(CO[N+](=O)[O-])(CO[N+](=O)[O-])CO[N+](=O)[O-]
inactive: [1] | [2] | [3] | [4] | [5] | [6]

O=[N+]([O-])c1cccc([N+](=O)[O-])c1
inactive: [1] | [4] | [7]

Cc1ccc([N+](=O)[O-])c([N+](=O)[O-])c1
inactive: [3] | [8] | [9] | [6]

COc1ccc([N+](=O)[O-])cc1[N+](=O)[O-]
inactive: [1] | [3] | [8] | [7] | [5] | [6]

Cc1c([N+](=O)[O-])cccc1[N+](=O)[O-]
inactive: [9]

CN(C)CCCl
inactive: [1] | [8] | [6]

N#CBr
inactive: [4] | [5] | [9]

Cc1cccc([N+](=O)[O-])c1[N+](=O)[O-]
inactive: [10] | [8] | [7] | [9] | [6]

CC(C)N(CCO)C(C)C
inactive: [4] | [7] | [9] | [6]

Cc1ccc([N+](=O)[O-])cc1[N+](=O)[O-]
inactive: [5] | [9]

COP(C)(=O)OC
not listed: [1] | [4]
inactive: all other assays above

CC(C)OP(C)(=O)OC(C)C
inactive: [2] | [7] | [6]
